Results taken from patent publication US20040248957A1.

The molecules below were run against human PDE6D (Homo sapiens, UniProt O43924).

Structure (SMILES) | Kd [µM]
Cc1sc(-c2ccsc2)nc1-c1ccc(-c2ccccc2F)cc1 | 0.779
C=CCSc1nc(-c2ccccc2)c(-c2ccccc2)[nH]1 | 0.42
Clc1cccc(Cl)c1CSc1nc(-c2ccccc2)c(-c2ccccc2)[nH]1 | 0.568
Cc1ccc(CSc2nc(-c3ccccc3)c(-c3ccccc3)[nH]2)cc1 | 3.05
CNc1nccc(-c2c(-c3ccc(F)cc3)ncn2C2CCN(Cc3ccccc3)CC2)n1 | 0.495
